Results as given in ChEMBL document CHEMBL3352539 (J Med Chem, 2014).

Protein sequences, listed by entry. Tags and fused reporters are not part of them. Lines headed by an entry give the natural chain unless they say otherwise; changes in a name come on top.
UniProt P53779: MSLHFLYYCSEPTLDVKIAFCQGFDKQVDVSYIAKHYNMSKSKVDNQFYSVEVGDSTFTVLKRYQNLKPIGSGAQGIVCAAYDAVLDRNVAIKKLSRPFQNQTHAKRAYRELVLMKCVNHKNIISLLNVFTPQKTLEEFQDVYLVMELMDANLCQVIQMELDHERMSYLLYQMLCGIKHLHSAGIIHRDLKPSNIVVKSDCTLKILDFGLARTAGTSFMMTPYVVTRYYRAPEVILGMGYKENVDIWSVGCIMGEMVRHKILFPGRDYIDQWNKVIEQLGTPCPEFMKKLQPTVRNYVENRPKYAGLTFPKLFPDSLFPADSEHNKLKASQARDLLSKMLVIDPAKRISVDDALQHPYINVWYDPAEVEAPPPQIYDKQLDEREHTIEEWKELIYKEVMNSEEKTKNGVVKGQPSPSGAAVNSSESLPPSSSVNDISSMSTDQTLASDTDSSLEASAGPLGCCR

Biological target: Mitogen-activated protein kinase 10 (Homo sapiens, UniProt P53779)
Test: Inhibition of JNK3alpha1 (unknown origin) up to 10 uM after 1 hr by homogeneous time-resolved fluorescence assay

inhibition	Structure (SMILES)
inactive	Cc1ccc(NC(=O)c2cccc(-n3cc(NC(=O)N4CCc5ccccc54)cn3)c2)cn1
inactive	Cc1ccc(NC(=O)c2cccc(-n3cc(NC(=O)N(CCO)c4ccccc4Cl)cn3)c2)cn1
inactive	Cc1ccc(NC(=O)c2cccc(-n3cc(NC(=O)NC4CCCC4)cn3)c2)cn1
inactive	Cc1cccc(NC(=O)c2cccc(-n3cc(NC(=O)Nc4ccccc4Cl)cn3)c2)n1

Active and inactive are the calls of the source. No cut-off for these calls is given here.
